{
  "source": "patent US11852633B2",
  "about": "(priority 2017, dated 2023)",
  "key": {"[1]": {"test": "Hydrolytic stability of the probes and the sensing product", "conditions": "aqueous media, also under basic conditions"}, "[2]": {"test": "Reaction analysis of probe 1 with cysteine (1H NMR, UV-Vis)", "conditions": "deuterated acetonitrile:water, four equivalents of K2CO3"}, "[3]": {"test": "Racemization analysis of the sensing mixture (CD and 1H NMR)"}},
  "data": [
    {"smiles": "O=C(O)[C@H](CSc1ccc([N+](=O)[O-])cc1[N+](=O)[O-])Nc1ccc([N+](=O)[O-])cc1[N+](=O)[O-]", "values": [
      {"measurement": "stability to hydrolysis", "setting": "[1]", "result": "hydrolytic stability"},
      {"measurement": "time to quantitative conversion of free cysteine to N,S-diarylation product 4 (NMR)", "setting": "[2]", "result": "≤ 7", "unit": "min"},
      {"measurement": "H/D exchange for the proton He attached to the chiral carbon atom", "setting": "[3]; 1H NMR, 1.25 mM, CD3CN:D2O (4:1), K2CO3, 1 hour", "result": "no sign of H/D exchange"},
      {"measurement": "product racemization", "setting": "[3]; CD at 0, 10, 30, 60 and 120 minutes, 35 μM, K2CO3 as base", "result": "no sign of product racemization"}
    ]}
  ]
}
